Experimental data taken from BindingDB's records for PubMed 2885406 (University of California, 1987).

Protein sequences, listed by entry. Tags and fused reporters are not part of them.
UniProt P22086, whole entry: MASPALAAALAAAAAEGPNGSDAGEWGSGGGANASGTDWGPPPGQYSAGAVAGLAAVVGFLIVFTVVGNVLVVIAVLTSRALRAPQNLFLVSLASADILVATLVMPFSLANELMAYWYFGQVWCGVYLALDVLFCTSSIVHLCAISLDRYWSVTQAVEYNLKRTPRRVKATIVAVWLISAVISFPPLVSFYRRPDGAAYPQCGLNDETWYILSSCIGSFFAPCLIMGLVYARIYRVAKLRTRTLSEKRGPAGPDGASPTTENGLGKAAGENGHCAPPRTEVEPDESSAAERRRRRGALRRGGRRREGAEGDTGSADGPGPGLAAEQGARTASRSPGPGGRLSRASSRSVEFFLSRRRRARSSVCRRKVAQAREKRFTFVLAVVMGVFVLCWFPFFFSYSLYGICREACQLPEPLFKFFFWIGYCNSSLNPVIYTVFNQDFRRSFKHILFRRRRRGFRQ

Biological target: Alpha-2C adrenergic receptor (Rattus norvegicus, UniProt P22086)

With `CNCC(O)c1ccc(O)c(O)c1` (stereo unspecified) [EPINEPHRINE] the Ki was 3.3 µM and 1.36 µM.

“And” between values parts separate entries of the source, which are not always exact repeats. Identical values can stand only once.
